In ChEMBL document CHEMBL2380235, “Discovery of N-{4-[(3-hydroxyphenyl)-3-methylpiperazin-1-yl]methyl-2-methylpropyl}-4-phenoxybenzamide analogues as selective kappa opioid receptor antagonists” (J Med Chem, 2013):
The source made the active and inactive calls. No cut-off for these calls is given here.

The chains behind the UniProt entries cited, without tags or fusion partners. Where a name states a change or a piece, a line headed by the entry shows the natural chain unless it says otherwise.
UniProt P41145: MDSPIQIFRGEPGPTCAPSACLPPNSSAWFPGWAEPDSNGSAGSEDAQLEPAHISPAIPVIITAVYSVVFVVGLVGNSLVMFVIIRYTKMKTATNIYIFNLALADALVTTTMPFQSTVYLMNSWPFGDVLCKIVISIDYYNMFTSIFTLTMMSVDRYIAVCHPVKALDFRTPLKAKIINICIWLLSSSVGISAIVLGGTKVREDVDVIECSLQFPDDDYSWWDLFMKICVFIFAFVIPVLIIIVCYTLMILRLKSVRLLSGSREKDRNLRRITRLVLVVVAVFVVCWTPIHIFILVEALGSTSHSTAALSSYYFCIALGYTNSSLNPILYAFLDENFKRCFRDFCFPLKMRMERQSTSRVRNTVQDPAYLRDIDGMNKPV
UniProt P41143, whole entry: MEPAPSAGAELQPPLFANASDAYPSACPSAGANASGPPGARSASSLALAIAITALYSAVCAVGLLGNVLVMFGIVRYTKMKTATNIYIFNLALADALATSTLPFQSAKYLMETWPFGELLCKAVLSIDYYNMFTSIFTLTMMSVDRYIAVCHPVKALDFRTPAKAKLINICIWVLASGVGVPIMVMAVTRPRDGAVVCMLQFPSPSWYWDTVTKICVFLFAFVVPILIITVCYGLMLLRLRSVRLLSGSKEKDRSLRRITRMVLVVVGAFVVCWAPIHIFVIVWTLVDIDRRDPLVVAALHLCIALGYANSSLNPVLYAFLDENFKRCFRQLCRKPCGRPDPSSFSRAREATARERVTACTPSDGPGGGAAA
UniProt P35372, whole entry: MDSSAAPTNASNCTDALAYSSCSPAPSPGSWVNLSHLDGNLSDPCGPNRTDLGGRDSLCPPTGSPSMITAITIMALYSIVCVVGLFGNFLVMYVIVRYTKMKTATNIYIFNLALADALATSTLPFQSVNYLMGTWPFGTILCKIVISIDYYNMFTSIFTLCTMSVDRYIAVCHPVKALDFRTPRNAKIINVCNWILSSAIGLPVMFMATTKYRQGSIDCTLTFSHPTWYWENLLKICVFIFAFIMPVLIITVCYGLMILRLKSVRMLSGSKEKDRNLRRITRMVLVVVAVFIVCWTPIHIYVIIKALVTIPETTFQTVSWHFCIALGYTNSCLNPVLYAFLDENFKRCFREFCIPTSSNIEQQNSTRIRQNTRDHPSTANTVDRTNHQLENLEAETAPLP

Experiments:
Homo sapiens [1] = species on record: Homo sapiens; assay: Selectivity ratio of Ke for human delta opioid receptor to Ke for human kappa opioid receptor
Homo sapiens [2] = species on record: Homo sapiens; assay: Selectivity ratio of Ke for human mu opioid receptor to Ke for human kappa opioid receptor
[3] = target: Kappa-type opioid receptor (Homo sapiens) (UniProt P41145); assay: Antagonist activity at human kappa opioid receptor expressed in CHO cells assessed as inhibition of U69,593-stimulated [35S]GTPgammaS binding; type: functional, cell-based
Summary of the method: (§1)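 Agonist concentration-response curves (eight concentrations, duplicate) were run with or without a single test-compound concentration. Ke = [L]/(DR−1), where [L] is the test-compound concentration and DR is the ratio of agonist EC50 with versus without compound. At least two test-compound concentrations were used, chosen to shift agonist EC50 rightward at least four-fold while keeping a clear upper asymptote.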

[4] = target: Delta-type opioid receptor (Homo sapiens) (UniProt P41143); assay: Antagonist activity at human delta opioid receptor expressed in CHO cells assessed as inhibition of DPDPE-stimulated [35S]GTPgammaS binding; type: functional, cell-based; summary of the method: as §1
[5] = target: Mu-type opioid receptor (Homo sapiens) (UniProt P35372); settings: CHO
[6] = target: Kappa-type opioid receptor (Homo sapiens) (UniProt P41145); assay: Antagonist activity at human kappa opioid receptor expressed in CHO cells assessed as inhibition of U69,593-stimulated [35S]GTPgammaS binding at 10 nM relative to control; type: functional, cell-based
[7] = target: Kappa-type opioid receptor (Homo sapiens) (UniProt P41145); assay: Intrinsic activity at human kappa opioid receptor expressed in CHO cells at 10 uM by [35S]GTPgammaS binding assay; type: functional, cell-based

Cc1ccc(O)c(Oc2ccc(C(=O)N[C@H](CN3CCN(c4cccc(O)c4)[C@@H](C)C3)C(C)C)cc2)c1
Ratio Ke (Homo sapiens [1]): 152
Ratio Ke (Homo sapiens [2]): 106
Ke [3]: 0.61 nM
Ke [4]: 93 nM
Ke [5]: 65 nM

COc1ccc(C(=O)N[C@H](CN2CCN(c3cccc(O)c3)[C@@H](C)C2)C(C)C)cc1OC
inhibition [6]: > 60%
Activity [7]: inactive
